# Molecular target: T1, memapsin 2 (Homo sapiens, UniProt P56817)
# Chains of the proteins cited; added tags and fusions are not shown. Residues count along the entry.
# UniProt P56817, 41-454 limits assumed: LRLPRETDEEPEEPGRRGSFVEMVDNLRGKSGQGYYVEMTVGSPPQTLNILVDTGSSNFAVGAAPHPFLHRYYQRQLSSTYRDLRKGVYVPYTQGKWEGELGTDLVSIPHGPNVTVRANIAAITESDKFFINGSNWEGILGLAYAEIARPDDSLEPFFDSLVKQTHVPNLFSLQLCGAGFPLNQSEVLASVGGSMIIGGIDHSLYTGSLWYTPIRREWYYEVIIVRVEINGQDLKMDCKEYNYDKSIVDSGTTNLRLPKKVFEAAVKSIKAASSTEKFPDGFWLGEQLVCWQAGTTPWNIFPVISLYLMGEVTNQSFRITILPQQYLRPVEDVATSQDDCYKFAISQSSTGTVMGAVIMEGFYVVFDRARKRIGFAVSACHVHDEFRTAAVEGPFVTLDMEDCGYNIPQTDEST
# T1 construct: pET-11 vector-derived residues 1-15 of promemapsin 2-T1 (N, cleaved yes); made in house; host or cells: E. coli
# Test: Inhibition of memapsin 2 proteolytic activity, fluorogenic substrate FS-2
# Type: biochemical
# Protocol: Ki is the inhibition equilibrium constant which indicates the ability of compounds to inhibit the β-secretase activity of memapsin 2 and memapsin 1. […] The K1 value is independent of the substrate, and converted from Ki apparent.
# The Vi/Vo values depicted in Table 1 were determined at conditions under which the enzyme and inhibitor concentrations were equal (e.g., about 80 nM, 100 nM).
# The relationship of Ki (independent of substrate concentration) to Kiapp is a function of substrate concentration in the assay and the Km for cleavage of the substrate by either memapsin 1 or memapsin 2 by the relationship:
# The spontaneously activated memapsin 2 was employed in assays to assess the inhibition of memapsin 2 relative to memapsin 1 by compounds of the invention and in some crystallization studies.
# An aliquot of the inhibitor of known concentration in DMSO was diluted into 1.8 ml 0.1 M NaOAc, pH 4.0. DMSO and added to a final concentration of 10% (v/v), and memapsin 2 (final concentration of 80 nM), followed by a 20 minute equilibration at 37° C. Compounds were evaluated for the ability to inhibit memapsin 1 and memapsin 2 at concentrations between about 10 nM and about 10 μm of inhibitor.
structure (smiles),measurement,value
"CC(C)C[C@H](NC(=O)[C@@H](N)CCC(=O)O)C(=O)N[C@@H](CC(=O)O)C(=O)N[C@@H](CC(C)C)[C@@H](O)C[C@@H](C)C(=O)N[C@H](C(=O)N[C@@H](CCC(=O)O)C(=O)N[C@@H](Cc1ccccc1)C(=O)O)C(C)C [OM00-3, ELDL*AVEF]",Improvement of Ki relative to OM99-2,5.2 fold

# Reference: US20040121947A1, “Compounds which inhibit beta-secretase activity and methods of use thereof” (Oklahoma Medical Research Foundation, priority 2000, published 2004)
